From patent publication US20250346630A1, “Engineering Peptides Using Peptide Epitope Linker Evolution” (AGENCY FOR SCIENCE, TECHNOLOGY AND RESEARCH, priority 2022, published 2025)

Sequences of proteins named here, by UniProt entry; tags and fusion partners are left off.
UniProt P06730, whole entry: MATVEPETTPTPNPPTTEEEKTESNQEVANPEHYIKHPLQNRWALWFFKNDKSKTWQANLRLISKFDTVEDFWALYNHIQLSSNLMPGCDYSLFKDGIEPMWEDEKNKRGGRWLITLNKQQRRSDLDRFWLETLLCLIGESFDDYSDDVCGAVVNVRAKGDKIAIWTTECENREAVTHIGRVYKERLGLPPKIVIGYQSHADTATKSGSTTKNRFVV
UniProt P12004, whole entry, looked up: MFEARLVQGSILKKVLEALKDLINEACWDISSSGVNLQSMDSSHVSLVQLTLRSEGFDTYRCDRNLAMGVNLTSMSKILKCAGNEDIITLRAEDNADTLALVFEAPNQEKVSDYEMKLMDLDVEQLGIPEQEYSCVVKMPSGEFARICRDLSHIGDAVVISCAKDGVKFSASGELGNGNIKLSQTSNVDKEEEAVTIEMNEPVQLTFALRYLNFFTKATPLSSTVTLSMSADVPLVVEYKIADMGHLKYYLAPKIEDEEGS
UniProt P60842, whole entry, species assumed: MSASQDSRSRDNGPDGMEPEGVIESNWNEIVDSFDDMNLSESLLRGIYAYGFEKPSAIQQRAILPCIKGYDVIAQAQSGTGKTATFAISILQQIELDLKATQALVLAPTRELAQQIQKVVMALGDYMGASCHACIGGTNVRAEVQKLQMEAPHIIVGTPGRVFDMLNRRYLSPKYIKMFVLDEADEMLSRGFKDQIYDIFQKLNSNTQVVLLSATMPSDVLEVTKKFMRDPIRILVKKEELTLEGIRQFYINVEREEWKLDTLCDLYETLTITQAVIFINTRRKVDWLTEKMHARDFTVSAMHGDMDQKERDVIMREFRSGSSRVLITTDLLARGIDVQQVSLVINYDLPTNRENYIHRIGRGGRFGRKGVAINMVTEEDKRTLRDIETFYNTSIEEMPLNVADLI

Tests used:
eIF4E = molecular target: T1, eIF4E (Homo sapiens, UniProt P06730); experiment: Isothermal titration calorimetry against eIF4E; format: binding; details: 293 K
T1 construct: pET11d expression plasmid containing the full-length eIF4E clone; made in house; host or cells: E. coli Rosetta pLysS

eIF4E cap-binding site = molecular target: T2, eIF4E cap-binding site (Homo sapiens, UniProt P06730); experiment: m^7GTP^FAM competitive fluorescence anisotropy assay; details: for effect of alanine mutation of EE-02 on binding to eIF4E: m^7GTP^FAM competition, relative to EE-02
T2 construct: pET11d expression plasmid containing the full-length eIF4E clone; made in house; host or cells: E. coli Rosetta pLysS

PCNA = molecular target: T3, PCNA (Homo sapiens, UniProt P12004); experiment: Kd (nM)
T3 construct: endogenous in cells; host or cells: HEK293

eIF4A [1] = molecular target: T4, eIF4A (Homo sapiens, UniProt P60842); experiment: eIF4A Surface Plasmon Resonance (SPR) assay; format: binding
T4 construct: GST (N); made in house; host or cells: E. coli BL21 DE3

eIF4A [2] = molecular target: T4, eIF4A; experiment: Isothermal titration calorimetry against eIF4A; format: binding

With MHPSAICEMGFFQDC [VH-DiF^CAP-05] the “ITC N, stoichiometry of the interaction (number of binding sites)” value (eIF4E) was 0.99, the “ITC ΔH (KJ/Mol), enthalpy of binding” value (eIF4E) was -7.5 kJ/mol and the “ITC ΔS (J/mol-K), entropy of binding” value (eIF4E) was 83.4 J/mol-K. The Kd (eIF4E; direct binding titration, read-out: ITC Kd) was 2150 nM and the Kd (eIF4E cap-binding site; read-out: Competitive Anisotropy (m^7GTP^FAM, kd), Table 3, 293 K, triplicate) was > 20000 nM.

SQSERPVYPMFHLR [VH-D1] gave a Kd (PCNA) of 142 ± 12.8 nM.

With “GCLWVLSRTPWCMLKLGP (disulphide bond) [4AM20, forms a disulphide bond]” the Kd (eIF4A [1]; PBST running buffer without DTT, read-out: Dissociation Constant (Kd) PBST Running Buffer) was 17.5 nM, the Kd (eIF4A [1]; read-out: Dissociation Constant (Kd) PBST with 1 mM DTT, PBST with 1 mM DTT) was 838 nM and the “Kd by Isothermal Titration calorimetry” value (eIF4A [2]; in the presence of TCEP) was “negligible”. The Kd (eIF4A [2]; without TCEP) was ~56 nM.

In the case of CSCC[C@@H]1NC(=O)[C@H](CCC(=O)O)NC(=O)[C@@H](NC(=O)[C@H](C)N)CSSC[C@@H](C(=O)NCC(N)=O)NC(=O)[C@H](CC(=O)O)NC(=O)[C@H](C)NC(=O)[C@H](Cc2ccccc2)NC(=O)[C@H](Cc2ccccc2)NC(=O)CNC1=O [EE-02^98A], the “effect of alanine mutation of EE-02 on binding to eIF4E” value (eIF4E cap-binding site) is reported as “no effect on binding”.

SHTRHPVYPMFHPR [VH-31] was tested, and the Kd (PCNA) was 446 ± 52.2 nM.

For CSCC[C@@H]1NC(=O)[C@H](CCC(=O)O)NC(=O)[C@@H](NC(=O)[C@H](C)N)CSSC[C@@H](C(=O)NCC(N)=O)NC(=O)[C@H](C)NC(=O)[C@H](CCC(N)=O)NC(=O)[C@H](Cc2ccccc2)NC(=O)[C@H](Cc2ccccc2)NC(=O)CNC1=O [EE-02^D9A], the “effect of alanine mutation of EE-02 on binding to eIF4E” value (eIF4E cap-binding site) was “small attenuation of the Kd”.

“SRSSQSERPVYPMFHLR (SRSERPVYPMFHLR) [SEQ ID NO: 22 | D2]” gave a Kd (PCNA) of 165 ± 15.3 nM.

Molecule SYSRVPLYPMFVNR [VH-18] has a Kd (PCNA) of 927 ± 48.9 nM.
